Measured values reported in article PMC10534581, “Therapeutic Drug Monitoring in Children and Adolescents: Findings on Fluoxetine from the TDM-VIGIL Trial” (Pharmaceutics, 2023).

How the values were obtained:
[1] = tested on: children and adolescents; test: Treatment response on Clinical Global Impression-Improvement (CGI-I); type: in vivo, human; conditions: ordinal regressions
Description: On the day of blood collection, treatment responses were measured using the Clinical Global Impression (CGI) Scale (Improvement, CGI-I), which clinicians were instructed to rate solely based on the effects of the drug. […] This instrument was specifically designed to quantify the severity of 56 signs of adverse events occurring in pediatric patients under treatment with a psychotropic drug. The 56 items were rated on a Likert scale with 'none', 'slight', 'moderate', 'severe', and 'extremely severe' responses. The maximal severity on any of the items was considered in this study. […] Additionally, indications for the TDM measurement, detailed information on concomitant medications, nicotine use, weight, and height were also recorded. […] The variance inflation factor (VIF) was evaluated as a measure of multicollinearity. […] Second, proportional odds models using the clm (cumulative link models) function in the 'ordinal' R package were fitted to examine the serum concentrations as predictors of clinical effects (measured by CGI-I) and adverse effects (measured by PAERS-maximal severity). […] To determine a possible concentration threshold of efficacy, receiver operating curve (ROC) analyses were performed based on a binary logistic regression, and the optimal cutoff was calculated by finding an optimal trade-off between sensitivity and specificity. […]

[2] = tested on: α- and β-adrenoceptors, histamine, and muscarinic receptors; conditions: cited from earlier work

## CNCCC(Oc1ccc(C(F)(F)F)cc1)c1ccccc1 (centres unmarked) [FLX, Fluoxetine]
[1]
  relationship between serum level and therapeutic effect (CGI-I): no significant relationship
[2]
  affinity to α- and β-adrenoceptors, histamine, and muscarinic receptors: no or very low affinity
